pKi: −log10 of the molar value.
Assays:
[1] = molecular target: Human BchE (HuBchE) (Homo sapiens, UniProt P06276); assay: Ki on BchI hydrolysis inhibition, Human BchE; conditions: read-out: Ki, Human BchE, 50 mM potassium phosphate, pH 7.4, 25° C.
[2] = test system: Monkey BchE (RhBchE); assay: Ki on BchI hydrolysis inhibition, Monkey BchE; conditions: for pKi: read-out: Ki, Monkey BchE, BchI hydrolysis inhibition, 50 mM potassium phosphate, pH 7.4, 25° C.

The chains behind the UniProt entries cited, without tags or fusion partners. Where a name states a change or a piece, a line headed by the entry shows the natural chain unless it says otherwise.
UniProt P06276: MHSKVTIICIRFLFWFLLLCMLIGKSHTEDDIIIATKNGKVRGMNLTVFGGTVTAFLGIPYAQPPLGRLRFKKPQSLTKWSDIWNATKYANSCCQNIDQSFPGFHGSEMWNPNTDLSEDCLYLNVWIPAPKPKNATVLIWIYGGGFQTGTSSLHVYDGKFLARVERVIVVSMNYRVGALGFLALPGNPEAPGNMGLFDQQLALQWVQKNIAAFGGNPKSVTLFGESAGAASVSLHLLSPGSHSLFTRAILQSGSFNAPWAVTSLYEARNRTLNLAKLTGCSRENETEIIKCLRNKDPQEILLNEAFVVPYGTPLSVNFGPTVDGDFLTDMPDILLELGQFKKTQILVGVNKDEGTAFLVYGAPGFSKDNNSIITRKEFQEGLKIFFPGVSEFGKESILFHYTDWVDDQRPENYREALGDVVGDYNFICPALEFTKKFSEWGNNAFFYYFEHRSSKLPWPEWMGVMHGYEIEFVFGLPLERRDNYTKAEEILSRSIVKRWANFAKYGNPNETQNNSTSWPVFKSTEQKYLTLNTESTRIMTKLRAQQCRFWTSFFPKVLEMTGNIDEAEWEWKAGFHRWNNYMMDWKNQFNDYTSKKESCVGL

Substance | pKi [1] | fold higher Ki for RhBchE than HuBchE ([2]; from Table 3) | pKi [2] | inhibition of BchI hydrolysis ([2]; concentration tested 0-100 μM) | fold higher affinity for RhBchE than HuBchE ([2]; from Ki values) | fold lower Ki for RhBchE than HuBchE ([2]; from Table 3)
(−)-norcocaine | 4.37 | 2 fold | 3.92 |  |  | 
(−)-Ecgonine methyl ester |  |  |  | did not inhibit |  | 
(−)-cocaine | 4.87 |  | 5.33 |  | about 2.9 fold | 3 fold
(+)-cocaine | 5.10 | 2 fold | 4.82 |  |  | 

Reference: patent US20070286846A1, “Novel methods for ester detoxication” (published 2007)
